We go through 44 compounds from patent US20050042213A1, “Methods and pharmaceutical compositions for modulating heparanase activation and uses thereof” (InSight Biopharmaceuticals Ltd., priority 2003, published 2005).

Amino acid sequences for entries named in this document (tags omitted). Residues count along the entry.
UniProt Q9Y251, 36-543 K307R limits assumed: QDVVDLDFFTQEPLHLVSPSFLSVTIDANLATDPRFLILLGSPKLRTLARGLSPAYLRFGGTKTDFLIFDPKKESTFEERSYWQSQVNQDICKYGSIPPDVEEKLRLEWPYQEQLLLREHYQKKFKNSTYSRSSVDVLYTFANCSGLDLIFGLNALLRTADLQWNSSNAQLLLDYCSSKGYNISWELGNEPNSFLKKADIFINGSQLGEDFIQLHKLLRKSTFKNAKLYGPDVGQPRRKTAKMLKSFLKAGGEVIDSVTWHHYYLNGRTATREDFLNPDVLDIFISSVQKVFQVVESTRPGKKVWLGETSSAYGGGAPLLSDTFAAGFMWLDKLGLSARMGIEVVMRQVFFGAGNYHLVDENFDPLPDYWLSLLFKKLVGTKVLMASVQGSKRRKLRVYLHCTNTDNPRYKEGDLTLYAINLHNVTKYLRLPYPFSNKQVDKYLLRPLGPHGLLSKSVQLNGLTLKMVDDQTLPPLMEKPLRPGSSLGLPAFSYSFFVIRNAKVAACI
UniProt Q9Y251, 36-109 limits assumed: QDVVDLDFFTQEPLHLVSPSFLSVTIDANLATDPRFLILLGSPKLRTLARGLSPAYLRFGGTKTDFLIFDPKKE
UniProt Q9Y251, 158-543 K307R limits assumed: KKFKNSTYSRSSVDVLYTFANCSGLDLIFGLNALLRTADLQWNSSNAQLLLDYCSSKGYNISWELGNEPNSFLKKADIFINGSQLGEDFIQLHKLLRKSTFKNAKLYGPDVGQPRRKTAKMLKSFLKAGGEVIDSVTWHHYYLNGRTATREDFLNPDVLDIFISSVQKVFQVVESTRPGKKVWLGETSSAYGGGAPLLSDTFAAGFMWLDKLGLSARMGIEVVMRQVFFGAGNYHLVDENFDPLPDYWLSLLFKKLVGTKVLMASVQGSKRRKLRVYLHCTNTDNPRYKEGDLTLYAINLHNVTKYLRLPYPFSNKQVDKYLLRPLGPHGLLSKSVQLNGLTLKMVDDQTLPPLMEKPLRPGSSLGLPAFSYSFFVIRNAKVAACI
UniProt P09038, 143-288 limits assumed: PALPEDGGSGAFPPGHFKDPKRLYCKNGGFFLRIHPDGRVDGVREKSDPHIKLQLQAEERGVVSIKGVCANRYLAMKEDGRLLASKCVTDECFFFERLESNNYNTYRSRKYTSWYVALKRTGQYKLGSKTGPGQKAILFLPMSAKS
UniProt P15692, 27-191 isoform 4 limits assumed: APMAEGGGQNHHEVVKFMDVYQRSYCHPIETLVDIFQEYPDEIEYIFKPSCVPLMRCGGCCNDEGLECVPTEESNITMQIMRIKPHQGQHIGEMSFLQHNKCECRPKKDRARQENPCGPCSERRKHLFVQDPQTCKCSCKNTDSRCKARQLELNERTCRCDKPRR

Where two headings read alike, the source gives them in different places.

In one experiment the target is pro-heparanase (H60) (Homo sapiens, UniProt Q9Y251, K307R). The experiment is described as follows: Pro-heparanase activation in a cell-based assay (293 cells, DMB assay). The following applies: read-out: IC50 H60.
The target of another experiment is heparanase (H53) (Homo sapiens, UniProt Q9Y251, K307R). As to the kind of experiment: Heparanase activity inhibition (H53), DMB assay.
The target in another experiment is β-FGF (Homo sapiens, UniProt P09038). As to the kind of experiment: Elisa assay for binding of β-FGF to heparin. The following applies: read-out: IC50 FGF; inhibition of β-FGF binding to heparin.
A further experiment deals with VEGF (Homo sapiens, UniProt P15692). The experiment is described as follows: Elisa assay for binding of VEGF to heparin. The settings on record: read-out: IC50 VEGF; inhibition of VEGF binding to heparin.
The mark [1] stands for this setting: inhibition of pro-heparanase activation, Table 9, 5-Benzylidene-rhodanine analogs.
Setting [2] is: inhibition of pro-heparanase activation, Table 10, 2-(thio)oxo-dihydro-pyrimidine-4,6-dione analogs.
Setting [3] is: inhibition of pro-heparanase activation, Table 7, 5-(5-Phenyl-furan-2-ylmethylene)rhodanine analogs.

On to `O=C(O)CCCCCN1C(=O)/C(=C\c2ccc(Br)cc2)SC1=S`, for which, at pro-heparanase (H60) (setting [1]), the IC50 was determined as 118 µM. For the compound `CCN1C(=O)/C(=C\c2ccc(O)c([N+](=O)[O-])c2)SC1=S`, the IC50 at pro-heparanase (H60) (setting [1]) was 29 µM. In the case of `O=C1/C(=C\c2ccccc2)SC(=Nc2ccc(O)cc2)N1c1ccc(O)cc1`, the IC50 on pro-heparanase (H60) (setting [1]) was 20 µM. Consider `Cc1ccc(N2C(=O)NC(=O)C(=Cc3ccco3)C2=O)cc1`, for which, at pro-heparanase (H60) (setting [2]), the IC50 came out at 5 µM.

As for `O=C(O)c1ccc(-c2ccc(/C=C3/SC(=S)N(C4CCCCC4)C3=O)o2)cc1`, the IC50 at pro-heparanase (H60) (setting [3]) was found to be 11 µM. The same measure, in the same setting: to `O=C(O)c1ccc(-c2ccc(/C=C3/SC(=S)N(c4cccc(C(F)(F)F)c4)C3=O)o2)cc1` belongs 3 µM.

In the case of `CCOc1ccc(N2C(=O)NC(=O)C(=Cc3ccc(-c4ccc(C(=O)O)c(Cl)c4)o3)C2=O)cc1`, the IC50 at pro-heparanase (H60) (setting [2]) came to 2.3 µM. As for `O=C(O)CCCCCN1C(=O)/C(=C\c2ccc(-c3cccc(Cl)c3)o2)SC1=S`, the “heparanase activity inhibition (H53) in addition to inhibition of pro-heparanase activation” value on heparanase (H53) is reported as “dual activity”. For the same compound, the IC50 on heparanase (H53) (read-out: IC50 H53, heparanase activity inhibition (H53), NI = no inhibition) came to 10 µM; at pro-heparanase (H60) (inhibition of pro-heparanase activation (H60), Table 15), 0.58 µM; at pro-heparanase (H60) (setting [3]), 0.58 µM; at β-FGF, 5.8 µM; on VEGF, 4.2 µM. For `Cc1ccc(/C=C2/SC(=S)N(CCCC(=O)Nc3cc(Cl)cc(Cl)c3)C2=O)cc1`, the IC50 on pro-heparanase (H60) (setting [1]) is 2 µM. For `Cc1c(N2C(=O)/C(=C\c3ccc(-c4ccc(Cl)cc4Cl)o3)SC2=S)c(=O)n(-c2ccccc2)n1C`, on pro-heparanase (H60) (setting [3]), the IC50 was 0.4 µM.

For the compound `O=C(O)c1ccc(-c2ccc(/C=C3/SC(=S)N(c4cccc(Cl)c4)C3=O)o2)cc1`, at pro-heparanase (H60) (setting [3]), the concentration for half-maximal inhibition (IC50) came to 2.5 µM. With `O=C1/C(=C\c2ccc(Cl)cc2Cl)SC(=S)N1c1cccc(C(F)(F)F)c1`, the IC50 at pro-heparanase (H60) (setting [1]) is 39 µM.

Take `O=C(O)CCCCCCCCCCN1C(=O)/C(=C\c2cccc(Br)c2)SC1=S`: the IC50 at pro-heparanase (H60) (setting [1]) was determined as 8 µM. For `Cc1ccc([N+](=O)[O-])cc1-c1ccc(C=C2C(=O)N(c3ccccc3)C(=S)N(c3ccccc3)C2=O)o1`, at pro-heparanase (H60) (setting [2]), the half-maximal inhibitory concentration (IC50) was 42 µM. Same read-out and setting: to `Cc1ccc(N2C(=O)C(=Cc3ccc(-c4cccc(C(=O)O)c4)o3)C(=O)NC2=S)cc1` belongs 58 µM.

Regarding `CN1C(=O)/C(=C\c2cc(Cl)ccc2O)SC1=S`, the IC50 at pro-heparanase (H60) (setting [1]) was found to be 8.5 µM. As for `Cc1c(-c2ccc(C=C3C(=O)NC(=O)NC3=O)o2)ccc([N+](=O)[O-])c1C`, the IC50 on pro-heparanase (H60) (setting [2]) stood at 23 µM. Turning to `O=C(O)c1ccc(-c2ccc(/C=C3/SC(=S)N(c4cccc(F)c4)C3=O)o2)cc1`, the IC50 on pro-heparanase (H60) (setting [3]) came to 2 µM. In the case of `Cc1cc(C)cc(N2C(=O)NC(=O)C(=Cc3ccc(-c4ccc(C(=O)O)c(Cl)c4)o3)C2=O)c1`, at pro-heparanase (H60) (setting [2]), the IC50 stood at 25 µM. Still for that read-out and setting: to `CN1C(=O)C(=Cc2ccc(-c3ccc(C(=O)O)c(O)c3)o2)C(=O)N(C)C1=O` belongs 18 µM.

`O=C1/C(=C\c2ccc(-c3ccc(Cl)cc3)o2)SC(=S)N1CCS(=O)(=O)O`: the 50% inhibitory concentration (IC50) at pro-heparanase (H60) (setting [3]) was determined as 1.8 µM. Same read-out and setting: to `Cc1c(N2C(=O)/C(=C\c3ccc(-c4cccc(Cl)c4)o3)SC2=S)c(=O)n(-c2ccccc2)n1C` belongs 0.18 µM; to `NS(=O)(=O)c1ccc(-c2ccc(/C=C3/SC(=S)N(C4CCS(=O)(=O)C4)C3=O)o2)cc1` (stereo not shown), 14 µM.

Regarding `O=C1NC(=S)NC(=O)C1=Cc1ccc(-c2ccc(C(=O)O)c(O)c2)o1`, the IC50 on pro-heparanase (H60) (setting [2]) is 6 µM. Regarding `CN1C(=O)C(=Cc2ccc(-c3ccccc3Cl)o2)C(=O)N(C)C1=O`, the IC50 at pro-heparanase (H60) (setting [2]) turned out to be 49 µM. On the same count and under the same terms, to `O=C(O)c1cccc(-c2ccc(C=C3C(=O)N(c4ccccc4)C(=S)N(c4ccccc4)C3=O)o2)c1` belongs 3.5 µM.

For the compound `Cc1c(N2C(=O)/C(=C\c3ccc(-c4cc(Cl)ccc4Cl)o3)SC2=S)c(=O)n(-c2ccccc2)n1C`, on pro-heparanase (H60) (setting [3]), the IC50 came to 3 µM.

In the case of `O=C(O)c1cccc(-c2ccc(/C=C3/SC(=S)N(c4cccc(Cl)c4)C3=O)o2)c1`, the IC50 on pro-heparanase (H60) (setting [3]) amounted to 6 µM.

As for `Cc1c(N2C(=O)/C(=C\c3ccc(Cl)cc3)SC2=S)c(=O)n(-c2ccccc2)n1C`, the IC50 on pro-heparanase (H60) (setting [1]) worked out at 12 µM. Take `CN1C(=O)/C(=C\c2ccc(-c3cccc(Br)c3)o2)SC1=S`: at pro-heparanase (H60) (setting [3]), the half-maximal inhibitory concentration (IC50) was 5.4 µM. For `CCOC(=O)c1cc(-c2ccc(C=C3C(=O)NC(=O)NC3=O)o2)ccc1Cl`, the IC50 at pro-heparanase (H60) (setting [2]) amounted to 40 µM. Take `O=C1/C(=C\c2ccc([N+](=O)[O-])cc2)SC(=S)N1C1CCS(=O)(=O)C1` (stereo not shown): the half-maximal inhibitory concentration (IC50) at pro-heparanase (H60) (setting [1]) stood at 103 µM. Turning to `O=C1NC(=S)NC(=O)C1=Cc1ccc(-c2cccc(C(=O)O)c2)o1`, the IC50 at pro-heparanase (H60) (setting [2]) stood at 23 µM. In the case of `CCCC(C(=O)O)N1C(=O)/C(=C\c2ccc(-c3ccc([N+](=O)[O-])cc3)o2)SC1=S` (stereo not shown), the IC50 on pro-heparanase (H60) (setting [3]) stood at 7 µM. Take `O=C1NC(=O)N(c2ccc(Cl)cc2)C(=O)C1=Cc1ccc(-c2ccccc2Cl)o1`: the 50% inhibitory concentration (IC50) at pro-heparanase (H60) (setting [2]) worked out at 19 µM. For `O=C(O)c1cccc(-c2ccc(/C=C3/SC(=S)N(c4cccc(C(F)(F)F)c4)C3=O)o2)c1`, the IC50 at pro-heparanase (H60) (setting [3]) amounted to 4 µM. Same read-out and setting: for `Cc1c(N2C(=O)/C(=C\c3ccc(-c4ccc(Cl)c(Cl)c4)o3)SC2=S)c(=O)n(-c2ccccc2)n1C` the value was 1.3 µM.

In the case of `CCOc1cccc(N2C(=O)C(=Cc3ccc(-c4cccc([N+](=O)[O-])c4)o3)C(=O)NC2=S)c1`, at pro-heparanase (H60) (setting [2]), the IC50 stood at 9 µM. For the compound `C=CCN1C(=O)/C(=C\c2cc(Cl)ccc2O)SC1=S`, the IC50 on pro-heparanase (H60) (setting [1]) came to 8.5 µM. In the case of `O=C1NC(=O)N(c2ccc(Cl)cc2)C(=O)C1=Cc1ccc(-c2ccc(C(=O)O)c(Cl)c2)o1`, the IC50 at pro-heparanase (H60) (setting [2]) turned out to be 19 µM. Take `O=C1/C(=C\c2ccccc2)SC(=S)N1c1cccc(O)c1`: the IC50 at pro-heparanase (H60) (setting [1]) came out at 9 µM. `Cc1c(N2C(=O)/C(=C\c3ccc(-c4cccc([N+](=O)[O-])c4)o3)SC2=S)c(=O)n(-c2ccccc2)n1C`: the IC50 at pro-heparanase (H60) (setting [3]) was determined as 0.98 µM. On the same count and under the same terms, for `O=C(O)CC(C(=O)O)N1C(=O)/C(=C\c2ccc(-c3ccc([N+](=O)[O-])cc3)o2)SC1=S` (stereo not shown) the value was 15 µM. In the case of `Cc1c(N2C(=O)/C(=C\c3c(F)cccc3Cl)SC2=S)c(=O)n(-c2ccccc2)n1C`, the concentration for half-maximal inhibition (IC50) at pro-heparanase (H60) (setting [1]) turned out to be 57 µM.

The IC50 is the concentration that gives 50% inhibition.
